Source: PubChem BioAssay
This excerpt belongs to a sample that is enriched for hits.
GIV-Gai inh – inhibitors of GIV peptide binding to Galpha-i3, primary screen, biochemical, fluorescence polarization, FITC-GIV GBA peptide, rat Galphai3 | Guanine nucleotide-binding protein G(i) subunit alpha-3 (Rattus norvegicus), P08753 | 90 min; hits give low values; scaled: aluminum fluoride 0%, vehicle 100% | percent of control (FP), % (test concentration not listed) | hit rate 0.42% among 210,000 | AID 1224905, 2016;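 active = replicate mean at 85% of control or lower, very high polarization wells dropped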;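 note: wells of about 15 µL received 100 nL stock; the first replicate is given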
GIV-Gai FP conf – confirmation of inhibitors of GIV binding to rat Galpha-i3; shares compounds with GIV-Gai inh; FITC-GIV peptide binding to Galphai3, fluorescence polarization; hits give low values; fluorescence polarization, mP at 100 µM; 38% of 580 active; AID 1259350;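 active = inhibition score of 15 or more, meaning 100 minus mean polarization as percent of control over three replicates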;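 also: lower mP means peptide displaced from Galphai3 so more inhibition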
GIV Gai AS conf – confirmation of inhibitors of GIV binding to human Galpha-i3 | AlphaScreen counts at 100 µM | 39% of 580 active | shares compounds with GIV-Gai inh | AlphaScreen Galphai3-GIV binding, purified proteins, 90 min; hits give low values;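 active = inhibition score at or above a set limit, where the score is 100 minus the three-replicate mean percent of control signal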
Starred values were filed as active, the others as inactive.

Protein sequences, listed by entry. Tags and fused reporters are not part of them.
Guanine nucleotide-binding protein G(i) subunit alpha-3 (Rattus norvegicus), P08753, UniProt P08753, whole entry, looked up: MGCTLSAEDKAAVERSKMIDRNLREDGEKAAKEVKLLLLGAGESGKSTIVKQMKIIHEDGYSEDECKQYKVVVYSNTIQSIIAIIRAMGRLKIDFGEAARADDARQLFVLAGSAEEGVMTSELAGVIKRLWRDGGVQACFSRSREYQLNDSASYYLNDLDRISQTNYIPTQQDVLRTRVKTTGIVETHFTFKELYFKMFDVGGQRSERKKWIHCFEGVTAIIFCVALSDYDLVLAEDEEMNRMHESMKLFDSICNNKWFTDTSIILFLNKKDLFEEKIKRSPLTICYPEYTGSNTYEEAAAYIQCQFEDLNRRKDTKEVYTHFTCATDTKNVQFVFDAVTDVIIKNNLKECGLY

SMILES	GIV-Gai inh	others
CC[n+]1c(/C=C/C=C2\N(C)c3ccccc3C2(C)C)n(-c2ccccc2)c2cc(Cl)ccc21	-32*
CCn1c(/C=C/C=C2\N(C)c3ccccc3C2(C)C)[n+](Cc2ccccc2)c2ccccc21	-32*
CNC(=O)C(C)n1nc(C)c2nn(-c3ccccc3)c(-n3cccc3)c2c1=O (stereo unspecified)	107
CCc1ccccc1NC(=O)C1CCCN1S(=O)(=O)c1cc2c(cc1C)NC(=O)CO2 (stereo unspecified)	101
C=CCNC(=O)C(CC)N1CCN(Cc2ccc(F)cc2)C(=O)C1=O (stereo unspecified)	101
Cc1cc(Sc2ccc(NC(=O)C3CC3)cc2)n2ncnc2n1	106
CCC(CO)NCc1ccc(-c2cccc(Cl)c2C)o1 (stereo unspecified)	104
CC(=O)NCCC1CCN(C(=O)c2ccc(C)cc2)CC1	95
O=C1N/C(=C/c2ccc(-c3ccccc3)o2)C(=O)N1Cc1ccc(Br)cc1	118
CCCN1C(=O)/C(=C/c2ccc(-c3cccc(C(F)(F)F)c3)o2)NC1=S	187
CCCN1C(=O)/C(=C/c2ccc(-c3ccc(Br)cc3)o2)NC1=S	-83*
CN(C)c1nc2ncn3c(=O)n(CC(=O)Nc4cc(F)cc(F)c4)nc3c2s1	106
CC1=NN(c2ccccc2)C(=O)/C1=C/c1cn(CC(O)CN2CCOCC2)c2ccccc12 (stereo unspecified)	109
CCOC(=O)C1=C(C)N=c2s/c(=C\c3ccc(O)c(Br)c3)c(=O)n2C1c1ccc(OC)cc1 (stereo unspecified)	186
CCOC(=O)C1=C(C)N=c2s/c(=C\c3cc(Br)ccc3O)c(=O)n2C1c1ccc(OC)c(OC)c1 (stereo unspecified)	107
CCOC(=O)C1=C(C)N=c2s/c(=C\c3ccc(O)c(Br)c3)c(=O)n2C1c1ccc(OC)c(OC)c1 (stereo unspecified)	71*
CCc1ccc2c3c(c(C)[nH]c13)CCN1C(=O)OC(C)(C)C21C (stereo unspecified)	112
Cc1ccc(NS(=O)(=O)c2cn(C)c(C)n2)cc1Cl	106
Cc1ccc2c3c(c(N)c(=O)[nH]c13)-c1ccccc1C2=O	76*
CCOC(=O)c1cccc2c1-c1ccccc1C2=O	100
Nc1c2c3c(cccc3n(C3CCCCC3)c1=O)C(=O)c1ccccc1-2	125
Cc1ccccc1-n1c(C)c(C)c2c1ncn1nc(-c3ccc(F)cc3)nc21	99
CCC(=O)Nc1cccc(-c2noc(C3CCN(C(=O)CNC(=O)c4ccccc4)CC3)n2)c1	104
COc1cc(-c2[nH]nc3c2C(c2ccc(C(F)(F)F)cc2)C(C#N)=C(N)O3)cc(OC)c1OC (stereo unspecified)	104
CC(C)c1cc(C2CCCN2Cc2cc(Br)ccc2F)no1 (stereo unspecified)	107
CCN1CC=C2C(C1)C(c1ccc(Cl)s1)C(C#N)=C(N)C2(C#N)C#N (stereo unspecified)	-52*
CCOc1ccc(C2C3CN(CC)CC=C3C(C#N)=C(N)C2(C#N)C#N)cc1 (stereo unspecified)	125
CCCN1CC=C2C(C1)C(c1ccc(C(=O)OC)cc1)C(C#N)=C(N)C2(C#N)C#N (stereo unspecified)	110
O=C1C2C3C=CC(CC3)C2C(=O)N1c1cc(C(F)(F)F)ccc1Cl (stereo unspecified)	103
CCN1CCN(C(=O)CCCN2C(=O)c3ccccc3Sc3ncccc32)CC1	104
CC1Cc2cc(S(=O)(=O)Nc3ccc(F)cc3)ccc2N1C(=O)C1CCC1 (stereo unspecified)	101
C=CCNC(=O)C1CCCN(C(=O)c2cccc(NS(=O)(=O)c3ccc(C(C)C)cc3)c2)C1 (stereo unspecified)	-65*
CC(C)CCNC(=O)C1CCN(C(=O)c2cccc(NS(=O)(=O)c3ccc(F)cc3)c2)CC1	103
CCCc1ccc(S(=O)(=O)Nc2cccc(C(=O)N3CCCC(C(=O)NC4CCCC4)C3)c2)cc1 (stereo unspecified)	102
Cc1ccccc1NC(=O)Nc1c(C)nc2nc[nH]n2c1=O	104
Cn1nc(C(=O)Nc2ccccc2)c2c1-c1ccsc1CC2	106
CCOC(=O)N1CCN(C(=O)c2cnn3c(C(F)(F)F)cc(-c4ccc(OC)c(OC)c4)nc23)CC1	103
COc1ccc(-c2nc3ccc(C(=O)N4CCN(c5ccccc5)CC4)cc3nc2-c2ccc(OC)c(OC)c2)cc1OC	102
CCOC(=O)N1CCN(C(=O)c2ccc3nc(-c4ccc(OC)c(OC)c4)c(-c4ccc(OC)c(OC)c4)nc3c2)CC1	84*	GIV-Gai FP conf=65;GIV Gai AS conf=50289
CCN1/C(=c2/s/c(=C3/C(=O)N(c4ccc(Cl)cc4)N=C3C)n(CC)c2=O)C=Cc2ccccc21	112

Reprinted at random: 2 compounds from above.
SMILES	GIV-Gai inh	others
CCN1CC=C2C(C1)C(c1ccc(Cl)s1)C(C#N)=C(N)C2(C#N)C#N (stereo unspecified)	-52*
Cn1nc(C(=O)Nc2ccccc2)c2c1-c1ccsc1CC2	106

A draw from above in order of molecular weight, high to low:
SMILES	GIV-Gai inh	others
CCOC(=O)C1=C(C)N=c2s/c(=C\c3ccc(O)c(Br)c3)c(=O)n2C1c1ccc(OC)cc1 (stereo unspecified)	186
CCC(=O)Nc1cccc(-c2noc(C3CCN(C(=O)CNC(=O)c4ccccc4)CC3)n2)c1	104
CCc1ccccc1NC(=O)C1CCCN1S(=O)(=O)c1cc2c(cc1C)NC(=O)CO2 (stereo unspecified)	101
CCN1CC=C2C(C1)C(c1ccc(Cl)s1)C(C#N)=C(N)C2(C#N)C#N (stereo unspecified)	-52*
CCOC(=O)c1cccc2c1-c1ccccc1C2=O	100

(listing goes on)
SMILES	GIV-Gai inh	others
CCNc1nc(C(N)=O)c(NC(=O)c2cc(-c3ccc(C)c(C)c3)nc3ccccc23)s1	105
COc1cccc(N2C(=O)/C(=C/c3ccc(OC)c(Br)c3)C=C2c2ccccc2)c1	112
CCc1ccc2nc(N(Cc3cccnc3)C(=O)Cc3ccccc3)sc2c1	37*	GIV-Gai FP conf=77;GIV Gai AS conf=33433
CCc1ccc2nc(N(Cc3cccnc3)C(=O)c3ccc(C#N)cc3)sc2c1	94
COc1ccc2nc(N(Cc3cccnc3)C(=O)Cc3ccccc3)sc2c1	112
CCC1CCCCN1C(=O)Cn1c(SCc2cccc(C)c2)nc2ccncc21 (stereo unspecified)	99
Cn1cnc(S(=O)(=O)N2CCCC(C(=O)NCCCc3ccccc3)C2)c1 (stereo unspecified)	108
CC(=O)N1CCC(O)C2CCCCC21 (stereo unspecified)	105
CC(=O)N1CN(C(C)=O)C(O)C1O (stereo unspecified)	103
CC(=O)N1CC(C)=C(C#N)C1O (stereo unspecified)	73*	GIV-Gai FP conf=48*;GIV Gai AS conf=19185*
CC(=O)N1CCOc2cc(S(=O)(=O)NC3COc4ccccc4C3)c(C)cc21 (stereo unspecified)	103
CC1CCC/C(=C/c2ccc(Cl)cc2)C1=O (stereo unspecified)	102
CCOCCCNC(=O)CCc1c(C)nn(-c2cc(N3CCOCC3)ncn2)c1C	103
Cc1cccc(N2CCN(CN3C(=O)C4(OCCCO4)c4ccccc43)CC2C)c1 (stereo unspecified)	99
CC(C)c1ccc([C@H]2[C@@H]3CCCC=C3C(C#N)=C(N)C2(C#N)C#N)cc1	154
CCOC(=O)N1CC=C2C(C#N)=C(N)C(C#N)(C#N)C(c3cccc(Cl)c3)C2C1 (stereo unspecified)	122
CCCC1C2CN(C(C)C)CC=C2C(C#N)=C(N)C1(C#N)C#N (stereo unspecified)	79*	GIV-Gai FP conf=66;GIV Gai AS conf=23056
CCOCCCNC(=O)C1CCN(c2cc(Sc3cc(C)ccc3C)ncn2)CC1	98
CCn1c(=O)c(-c2noc(C(=O)NC3CCCC3)n2)nn(-c2ccccc2)c1=O	103
O=S(=O)(CCC(F)(Br)C(F)(F)Br)c1ccccc1 (stereo unspecified)	103
